Details: crystals after filtering and drying; pH=3.2 of the saturated solution

“(R)-3-(4-(2-(2-methyltetrazol-5-yl)pyridin-5-yl)-3-fluorophenyl)-5-hydroxymethyl oxazolidin-2-one dihydrogen phosphate [free acid]” gave an aqueous solubility of 100 µg/mL.
